From patent US12104181B2, “Compositions and methods for treating viral infections targeting TRIM7” (THE BOARD OF REGENTS OF THE UNIVERSITY OF TEXAS SYSTEM, priority 2021, dated 2024)

System: coxsackievirus B3 (CVB3-GFP)
Format: cell-based
Conditions: HeLa cells, replicate R1

## BIRC4: human RING type E3 ligase expressed from lentiviral vector
GFP-positive cells within RFP-positive gate
  Percent Infected R1: 96.9%
  Z score R1: 0.106
